# Nrf2 activator: activators of Nrf2 (ARE) signaling; hit rate 0.31% among 410,000; Potency, µM (doses to about 46.1 µM), usual class: activators; AREc32 ARE-luciferase reporter (MCF7-derived line), luminescence, 24 h; AID 624171; further: nearly all actives have a fitted effect of over 65% in size
#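 For detection, Steady-Glo was added and plates sat 30 min at RT; before that, AREc32_Fluc cells grown overnight in OPTI-MEM/5% FBS had been treated with 23 nL compound for 24 hr at 37 deg C.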
# A549 tox: counter-screen for Nrf2 inhibitors: cytotoxicity in A549 cells | A549 ARE-Fluc cells, CellTiter-Fluor viability, 18-24 h | Potency, µM (titrated, usually from 46 µM), most hits filed as inhibitors | hit rate 0.16% among 390,000 | AID 504648
#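 A549 ARE-Fluc cells in 5% FBS OPTI-MEM, 5000 cells/well, rested 2 h then exposed to compounds in concentration-response for 18-24 h at 37 °C. Viability by CellTiter-Fluor fluorescence (Ex 405/Em 525) after 30 min; luciferase luminescence (BugLite, 15 min, RT) read afterwards.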
# Nrf2 block: Nrf2 pathway inhibition; hit rate 2.1% among 360,000; A549 ARE-Fluc reporter, luciferase luminescence, 18-24 h; Potency, µM (series often up to 46 µM), usual class: inhibitors; further: nearly all actives have a fitted effect of over 60% in size
#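 Cells were seeded and rested 2 h, then exposed to compounds for 18-24 h. CellTiter-Fluor was read first as a viability measure. BugLite was added 15 min before the final luminescent read of ARE-luciferase activity in A549 cells.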
# IL-2 act: IL-2 activation. IL-2 activation reporter assay, cell-based qHTS; stimulated with anti-CD3/CD4/CD28 beads; in transgenic mouse T cells. activation, % (series mostly up to about 46 µM). hit rate 0.065% among 360,000; in the data active means activation above about 50%; inconclusive means mostly about 30% to 49%
#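 Readout is EGFP and DsRed signal by fluorescent plate cytometry after 18 h at 37 degrees C. Transgenic mouse T cells (750/well) received compound for 60 min before bead stimulation (anti-CD3, anti-CD4, anti-CD28); memory T cells served as non-tolerant control.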
# miR-21 reporter: raises the signal of a miR-21 reporter | HeLa miR-21 FLuc reporter, luciferase, 48 h | Potency, µM (highest dose often 38.3 µM) | 340,000 tested, under 10 active | AID 2288; active = well fitted rising curve with a large enough effect; inconclusive = small, poorly fitted or top-dose-only effect; inactive = no such curve, though single readings can be large or run the other way;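 note: miR-21 action dims this reporter so a rising signal means less miR-21 action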
#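 HeLa cells endogenously expressing miR-21, stably carrying CMV-driven firefly luciferase with a downstream miR-21 binding site, 2000 cells/well. Titrations up to approximately 40 uM, 48 hours; luciferase luminescence read.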
# ClpP mod: qHTS Assay for Activators of ClpP; purified B. subtilis ClpP, FRET peptide cleavage, 20 min; Potency, µM (top dose mostly 57.5 µM); hit rate 1.9% among 340,000; active means well fitted falling curve with a large enough effect; inconclusive means small, poorly fitted or top-dose-only effect; inactive means no such curve, though single readings can be large or run the other way; further: the source files actives as falling curves though it sought activators and does not explain the sign; nearly all actives have a fitted effect of over 65% in size
#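 ClpP 10 microg/mL final, pH 8 Tris/KCl buffer with BSA, glycerol, Tween-20; compound pinned in; FRET-FV substrate; RT 20 min; Ex320/Em430; ΔFRET vs ADEP 5.8 microM, DMSO, no enzyme.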
# Numbers stand for hits; – = inactive; ? = inconclusive; · = not tested or not shown. Shown are actives, neighbours in structure and some others; about 3.7% of the full set was active somewhere. Unless noted, the call rests on the fitted dose curve; in most records, active means well fitted curve in the direction sought with a large enough effect; inconclusive means small, poorly fitted or top-dose-only effect, or another doubt; inactive means no such curve, though single readings can be large; an effect the other way counts as inactive or inconclusive.
SMILES,Nrf2 activator,A549 tox,Nrf2 block,IL-2 act,miR-21 reporter,ClpP mod
COc1ccc(-c2cc(C(=O)Nc3ccc(OC)cc3OC)no2)cc1,–,–,–,–,–,–
COc1ccc(NC(=O)c2cc(-c3cccs3)on2)c(OC)c1,1.3µM,–,–,–,–,·
CCCn1c2ccccc2c2cnn(CC(=O)N(C)c3ccc(F)cc3)c(=O)c21,–,–,–,·,–,–
O=C(CCC1N=C2c3ccccc3N=C(SCC(=O)Nc3ccc(F)cc3)N2C1=O)NCc1cccs1 (stereo not drawn),–,–,·,·,–,–
O=c1c2oc3ccccc3c2n(Cc2ccccc2F)c(=O)n1Cc1ccc2c(c1)OCO2,–,–,–,·,–,25µM
CCc1ccc(-c2nnn(CCC(=O)OC)n2)cc1,–,–,3.3µM,–,–,–
O=C(C[N+]12CCCc3cccc(c31)CCC2)c1ccccc1,·,·,·,·,·,–
Cc1cc(C)c(C(=O)/C=C/c2cccc3ccccc23)c(=O)[nH]1,–,?,18µM,–,?,–
Cc1cc(C)c(C(=O)/C=C/c2ccc3c(c2)OCO3)c(=O)[nH]1,–,–,?,–,–,·
CC(=O)c1ccc(NC(=O)CSc2nc(-c3cccc(F)c3)nc3c2c(=O)n(C)c(=O)n3C)cc1,–,–,·,·,–,–
CCN(CC)c1ccc(/C=N/N2C(=O)c3ccccc3C2=O)c(O)c1,–,–,–,?,–,–
O=C1c2cccc3cc([N+](=O)[O-])cc(c23)C(=O)N1/N=C/c1ccc(O)cc1O,–,23µM,?,–,–,·
Cc1ccc(-c2noc(-c3nnn(CC(=O)Nc4ccc(C)c(Cl)c4)c3N)n2)cc1,–,–,–,·,–,–
Cc1nn(-c2ccc(F)cc2)c2sc(C(=O)OCC(=O)N3CCC(C)CC3)cc12,–,–,?,–,–,22µM
Cc1noc(C)c1COC(=O)c1cc2c(C)nn(-c3ccc(F)cc3)c2s1,–,–,–,–,–,–
O=C(CNC(=O)c1ccc(-c2ccccc2)cc1)OC(C(=O)Nc1cc(C(F)(F)F)ccc1Cl)c1ccccc1 (stereo not drawn),·,–,–,·,·,·
N#CC(C(N)=O)=C1CCCCC1,–,–,–,–,–,·
N#CC(C(=O)NC1CCCCC1)=C1CCCCCC1,–,–,–,–,–,16µM
O=C(Nc1ccccc1F)c1oc2ccccc2c1NC(=O)c1c(F)cccc1F,–,–,–,·,–,–
CCn1ccc2cc(OC)ccc2c1=S,–,–,–,–,–,–
CCSc1ccc2cc(OC)ccc2[n+]1CC,–,–,16µM,–,–,·
O=C(NCC1OCCc2ccccc21)c1ccc(NC(=O)c2ccc(Cl)cc2)cc1 (stereo not drawn),–,?,21µM,–,–,–
O=C(CCc1ccccc1)NCC1OCCc2ccccc21 (stereo not drawn),–,–,–,–,–,·
O=C(NCC1OCCc2ccccc21)c1ccco1 (stereo not drawn),11µM,–,?,–,–,–
Cc1ccc(NC(=O)C(=O)NCC2OCCc3ccccc32)cc1 (stereo not drawn),–,–,–,–,–,–
SMILES,Nrf2 activator,A549 tox,Nrf2 block,IL-2 act,miR-21 reporter,ClpP mod
Cc1cc2cc(CCNC(=O)CC(C)C)c(=O)[nH]c2cc1C,·,·,·,·,–,·
CCC(=O)NCCc1cc2cc(C)c(C)cc2[nH]c1=O,–,–,–,–,–,16µM
COc1cc(OC)c(OC)cc1/C=C/c1ccc2ccccc2n1,·,·,·,·,·,–
COC(=O)c1ccc2nc(-c3ccco3)c(Cc3cccc(Cl)c3)n2c1,5.6µM,·,·,–,·,–
Clc1ccc2nc(-c3ccco3)c(Cc3ccccc3)n2c1,10µM,·,·,–,·,–
Brc1ccc2nc(-c3ccco3)c(Cc3ccsc3)n2c1,?,·,·,–,·,–
Clc1ccc2nc(-c3ccco3)c(Cc3ccsc3)n2c1,11µM,·,·,–,·,–
COC(=O)c1ccc2nc(-c3ccco3)c(Cc3ccccc3)n2c1,?,·,·,–,·,–
Cc1ccc(N2CCn3c2nc2c3c(=O)n(CCCc3ccccc3)c(=O)n2C)cc1,–,–,–,·,–,?
Cc1cccc(CN2Cc3cccc4c3[C@H](C=CC4)CC2=O)c1,·,·,·,·,·,–

# Source: PubChem BioAssay (National Center for Advancing Translational Sciences (NCATS))
